{"source": "patent US5407939A", "about": "“Fluorinated 17 β-substituted 4-aza-5 α-androstan-3-one derivatives” (Farmitalia Carlo Erba S.R.L., priority 1992, dated 1995)", "key": {"5α-reductase [1]": {"target": "T1, 5α-reductase (Homo sapiens, UniProt P31213)", "T1 construct": "particulate fraction from homogenates of hyperplastic human prostates; from tissue; host or cells: hyperplastic human prostate, particulate fraction (140,000×g pellet)", "T1 sequence (P31213 1-254)": "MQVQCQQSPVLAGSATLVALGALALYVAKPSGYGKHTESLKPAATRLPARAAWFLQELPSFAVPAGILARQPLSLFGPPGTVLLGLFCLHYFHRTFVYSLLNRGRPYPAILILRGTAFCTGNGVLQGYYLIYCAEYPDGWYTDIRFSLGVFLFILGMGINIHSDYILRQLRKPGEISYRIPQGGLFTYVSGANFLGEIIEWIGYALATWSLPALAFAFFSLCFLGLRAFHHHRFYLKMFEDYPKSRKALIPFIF", "test": "In vitro assay of 5α-reductase inhibition (particulate fraction from homogenates of hyperplastic human prostates, [14C] testosterone)", "type": "biochemical", "conditions": "human prostate particulate fraction, pH 5.5, 1 μM [14C] testosterone, 30 min, 37° C.", "description": "(§1) For example, the inhibitory effect of the compounds of the invention on 5α-reductase was determined in vitro and in vivo according to the procedure reported herebelow.\nInhibition of 5α-reductase was evaluated using the particulate fraction from homogenates of hyperplastic human prostates as the enzyme source. The particulate fraction was prepared centrifuging prostate homogenate at 140,000×g. The resulting pellet, washed several times, was resuspended in buffer and stored at -80° C. in aliquots containing ≈10 mg protein/mi.\nThe assay for 5α-reductase was done in a final volume of 0.5 ml, in 40 mM TRIS-HCl buffer pH 5.5, containing 1 mM dithiothreitol, 5 mM NADPH, 1 μM [^14 C] testosterone, an aliquot of the enzyme preparation and various of the inhibitors. After 30 min incubation at 37° C. the reaction was terminated by addition of 2 ml cold diethyl ether and the organic phase was separated, evaporated under N2 and resuspended in ethyl acetate. […]\nRadioactivity on the plate was scanned and analyzed from quantitative plots printed by a TLC-analyzer (Berthold). The fractional 5α-reduction of testosterone was calculated by relating the ^14 C-radioactivity in the 5α-reduced metabolites (5α-dihydrotestosterone, 3α- and 3β-androstanediols) regions to the total radioactivity in the testosterone and 5α-reduced metabolites regions. […]"}, "5α-reductase [2]": {"test_system": "5α-reductase", "test": "In vivo inhibition of 5α-reductase (antiandrogenic effect, ventral prostate weight in castrated, testosterone-implanted rats)", "conditions": "rat, once daily for 7 consecutive days", "description": "as §1\nThe standard test for the antiandrogenic effect in rats was used. Prepuberal 22-day-old male rats were castrated via scrotal incision under light ether anaesthesia. On the seventh day after orchiectomy, androgen replacement was performed via subcutaneous implantation of 1 cm-long Silastic® tube (Dow-Corning, Model No 602-265) filled with a mixture of 25% testosterone and 75% cholesterol. The rats were then treated orally with the tested compounds (7 animals/group), once daily for 7 consecutive days. 24 hours after the last dose the rats were sacrificed and the ventral prostate was removed and weighed. Control animals (testosterone controls) received the vehicle (0.5 ml/kg of 0.5% Methocel/0.4% Tween 80). One group of castrated rats was not implanted with testosterone (castrated controls).\nThe mean percentage of inhibition of the T-induced hypertrophic response of the prostate was calculated according to the following formula:\n% inhibition=100×(WTC -W1)/(WTC -WCC)\nwhere WTC, WCC and W1 are the mean prostate weight of testosterone control, castrated control and inhibitor treated group, respectively."}}, "data": [{"molecule": "CC(NC(=O)[C@H]1CC[C@H]2[C@@H]3CC[C@H]4NC(=O)C=C[C@]4(C)[C@H]3CC[C@]12C)(c1ccccc1)C(F)(F)F", "note": "(stereo partly drawn) [Compound 41, N-(1,1,1-trifluoro-2-phenylprop-2-yl) 3-oxo-4-aza-5α-androst-1-ene-17β-carboxamide]", "values": [{"measurement": "IC50", "setting": "5α-reductase [1]", "result": 12, "unit": "nM"}, {"measurement": "% INHIBITION OF PROSTATE WEIGHT AT 3 mg/kg/day p.o.", "setting": "5α-reductase [2]", "result": 54, "unit": "%"}]}]}
